Results on 99 compounds are retold here after PubChem BioAssay AID743126 (The Scripps Research Institute Molecular Screening Center, 2013).

By UniProt entry, the sequences of proteins in these tests, tags left out.
UniProt Q9NZ20, whole entry: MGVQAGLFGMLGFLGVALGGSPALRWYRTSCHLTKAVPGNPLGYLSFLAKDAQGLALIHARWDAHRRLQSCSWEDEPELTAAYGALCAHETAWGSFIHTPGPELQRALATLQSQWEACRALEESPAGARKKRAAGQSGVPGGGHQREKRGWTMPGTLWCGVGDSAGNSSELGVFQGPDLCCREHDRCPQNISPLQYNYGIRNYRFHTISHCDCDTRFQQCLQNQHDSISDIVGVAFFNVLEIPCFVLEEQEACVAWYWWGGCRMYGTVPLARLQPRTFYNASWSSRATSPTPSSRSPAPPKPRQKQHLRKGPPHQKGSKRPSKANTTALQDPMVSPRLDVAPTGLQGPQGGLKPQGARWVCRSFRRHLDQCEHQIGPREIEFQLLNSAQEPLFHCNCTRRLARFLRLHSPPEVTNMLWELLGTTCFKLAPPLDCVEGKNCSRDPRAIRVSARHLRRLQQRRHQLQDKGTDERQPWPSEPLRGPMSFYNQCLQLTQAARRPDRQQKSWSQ

The entries are a selection whose mix differs from that of the whole data set. Some salts or complexes appear as unconnected parts, following the source record. The source made the active and inactive calls.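 How the source made its calls: active means inhibition above mean plus 3 SD of compounds lying within the high and low control bounds (cut at about 19% in these data); inactive means the rest.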

The test has as its target Group 3 secretory phospholipase A2 (Homo sapiens) (UniProt Q9NZ20). Briefly: human group III sPLA2 inhibitors, primary screen, biochemical, QFRET, BODIPY PC-A2 liposome substrate (AID 743126).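 Further: 0% = median of test compound wells and 100% = no enzyme DMSO wells.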 Particulars: QFRET BODIPY PC-A2 liposome hydrolysis, fluorescence; at 12.2 µM; hits give high values.
Turning to `O=[N+]([O-])c1cc([N+](=O)[O-])c(Nc2nnnn2CCO)c([N+](=O)[O-])c1`, the inhibition (usually the relative decrease from the control value, in per cent) was inactive: -1.69%.
As for `CCOC(=O)C(CC)C1=NC(C)(C)Cc2ccccc21.O=[N+]([O-])c1cc([N+](=O)[O-])c(O)c([N+](=O)[O-])c1` (centres undefined), the figure is inactive: 2.94%.
In the case of `CP(=O)(Nc1ccc(SC(F)(F)F)cc1)Oc1ccccc1` (centres undefined) it was inactive: 1.5%; in that of `CCCOc1ccc(NP(C)(=O)Oc2ccc(Cl)cc2)cc1` (centres undefined), inactive: 4.31%.
Regarding `COc1ccc(-c2ccccn2)cc1.O=[N+]([O-])c1cc([N+](=O)[O-])c(O)c([N+](=O)[O-])c1`, the inhibition was inactive: -2.31%.
As for `COc1ccccc1OP(C)(=O)Nc1c(C)cccc1C` (centres undefined), the figure is inactive: 1.6%.
Regarding `CN1CCCCC1COC(=O)C1(O)c2ccccc2CCc2ccccc21` (centres undefined), the inhibition was inactive: -6.54%.
As for `CN(Cc1cccnc1)C(=O)COc1ccc(Cl)c(Cl)c1.O=[N+]([O-])c1cc([N+](=O)[O-])c(O)c([N+](=O)[O-])c1`, the figure is inactive: 7.98%; as for `O=[N+]([O-])c1cc([N+](=O)[O-])c(-n2nnc3ccccc32)c([N+](=O)[O-])c1`, inactive: 0.88%; as for `Cc1nc2ccc3ccccc3c2s1.O=[N+]([O-])c1cc([N+](=O)[O-])c(O)c([N+](=O)[O-])c1`, inactive: 4.6%.
On to `O=[N+]([O-])c1cc([N+](=O)[O-])c(-c2cnn(-c3ccccc3)c2)c([N+](=O)[O-])c1`, for which the inhibition was inactive: 15.4%.
Consider `Cc1cc(C)cc(OP(C)(=O)Nc2ccc(C)cc2C)c1` (centres undefined), for which the inhibition is inactive: -3.45%.
In the case of `CCOC(=O)c1ccc(NP(C)(=O)Oc2cc(C)cc(C)c2)cc1` (centres undefined) it was inactive: -7.77%; in that of `COc1ccccc1OP(C)(=O)Nc1cccc(Br)c1` (centres undefined), inactive: -2.81%.
Regarding `CP(=O)(Nc1cccc(Br)c1)Oc1ccccc1` (centres undefined), the inhibition was inactive: -7.06%.
On to `Cc1cc(C)cc(OP(C)(=O)Nc2ccccn2)c1` (centres undefined), for which the inhibition was inactive: -1%.
As for `Cc1ccc(C)c(NP(C)(=O)Oc2ccccc2)c1` (centres undefined), the figure is inactive: -2.07%; as for `O=C(O)c1cccc(Nc2c([N+](=O)[O-])cc([N+](=O)[O-])cc2[N+](=O)[O-])c1`, inactive: 1.83%; as for `CC1=NCCc2c1[nH]c1ccccc21.O=[N+]([O-])c1cc([N+](=O)[O-])c(O)c([N+](=O)[O-])c1`, inactive: 7.3%.
In the case of `CC(C)(C)c1ccc(OP(C)(=O)Nc2ccc(SC(F)(F)F)cc2)cc1` (centres undefined) it was inactive: 8.89%.
Take `Cc1cccc(C)c1OP(C)(N)=O` (centres undefined): the inhibition was inactive: 8.64%.
Regarding `O=[N+]([O-])c1ccc2c(c1)C=Nc1ccccc1O2`, the inhibition is inactive: -25.4%.
In the case of `O=[N+]([O-])c1cc([N+](=O)[O-])c(Nc2cccnc2)c([N+](=O)[O-])c1` it was inactive: 2.79%; in that of `COc1ccccc1OP(C)(=O)Nc1cc(Cl)ccc1C` (centres undefined), inactive: -0.14%.
In the case of `COc1ccc(OP(C)(=O)Nc2cccc(F)c2)cc1` (centres undefined) it was inactive: -1.27%.
With `Cc1cc(C)cc(OP(C)(N)=O)c1` (centres undefined), the inhibition is inactive: 5.94%.
Regarding `CCOC(=O)c1ccc(NP(C)(=O)Oc2ccccc2)cc1` (centres undefined), the inhibition was inactive: 1.6%.
Regarding `COc1ccccc1OP(C)(=O)Nc1ccc(C)cc1` (centres undefined), the inhibition is inactive: 12%.
In the case of `Cc1ccc(NP(C)(=O)Oc2ccccc2)c(C)c1` (centres undefined) it was inactive: -0.78%; in that of `CCN(CC)CCCOC(=O)C(O)(c1ccccc1)c1ccccc1`, inactive: 12.1%; in that of `COc1ccccc1-c1ccccn1.O=[N+]([O-])c1cc([N+](=O)[O-])c(O)c([N+](=O)[O-])c1`, inactive: -0.65%.
As for `CCc1ccc(OP(C)(=O)N2CCN(c3ccc([N+](=O)[O-])cc3)CC2)cc1` (centres undefined), the figure is inactive: -1.68%.
As for `CP(=O)(NC(=O)Nc1ccccc1)Oc1ccccc1` (centres undefined), the figure is inactive: 8.95%; as for `Cc1cc(C)cc(OP(C)(=O)Nc2ccc(SC(F)(F)F)cc2)c1` (centres undefined), inactive: 7.5%.
For the compound `Cc1cccc(C)c1OP(C)(=O)Nc1ccc(SC(F)(F)F)cc1` (centres undefined), the inhibition was inactive: 9.55%.
`CP(=O)(Nc1ccc(SC(F)(F)F)cc1)Oc1ccc(Cl)cc1` (centres undefined): the inhibition was inactive: 7.73%.
As for `CP(=O)(Oc1ccccc1)OC(c1ccccc1)C(F)(F)F` (centres undefined), the figure is inactive: -0.02%; as for `CP(=O)(Nc1ccccn1)Oc1ccc(Cl)cc1` (centres undefined), inactive: 1.08%.
As for `CCOP(C)(=S)SCC(=O)NC(C)C(=O)O` (centres undefined), the figure is inactive: 2.2%; as for `CCOC(=O)c1ccc(NP(C)(=O)Oc2ccc(OC)cc2)cc1` (centres undefined), inactive: 0.85%.
In the case of `O=[N+]([O-])c1cc([N+](=O)[O-])c(O)c([N+](=O)[O-])c1.c1ccc(Oc2ccncc2)cc1` it was inactive: 13.5%; in that of `COc1ccccc1OP(C)(=O)Nc1ccccc1` (centres undefined), inactive: -0.52%.
Take `CP(=O)(Nc1ccccc1Br)Oc1ccccc1` (centres undefined): the inhibition is inactive: 13.3%.
As for `CP(=S)(Nn1cnnc1)Oc1ccccc1` (centres undefined), the inhibition is inactive: -9.02%.
As to `CP(=O)(OC12CC3CC(CC(C3)C1)C2)OC12CC3CC(CC(C3)C1)C2`, the inhibition was inactive: 2.5%.
In the case of `CCOC(=O)c1ccc(NP(C)(=O)Oc2ccc(Cl)cc2)cc1` (centres undefined) it was inactive: 1.61%.
For the compound `Nc1ccc2c(ccc3cccnc32)n1.O=[N+]([O-])c1cc([N+](=O)[O-])c(O)c([N+](=O)[O-])c1`, the inhibition was inactive: -4.93%.
Turning to `CP(=O)(Oc1ccccc1)N1CCOC1=O` (centres undefined), the inhibition is inactive: 0.09%.
In the case of `CCc1ccc(OP(C)(=O)Nc2cccnc2)cc1` (centres undefined) it was inactive: 3.5%.
As to `COc1ccccc1OP(C)(=O)Nc1c(C)n(C)n(-c2ccccc2)c1=O` (centres undefined), the inhibition was inactive: -5.47%.
Regarding `O=C(OCCCN1CCCC1)C(O)(c1ccccc1)C1CCCCC1` (centres undefined), the inhibition was inactive: 3.28%.
As for `CCN(CC)CC(O)COC(=O)C(O)(c1ccccc1)C1CCCCC1` (centres undefined), the figure is inactive: 0.4%; as for `COc1ccc(OP(C)(=O)Nc2ccc(Br)cc2)cc1` (centres undefined), inactive: -1.29%.
In the case of `CN(C)C(=O)c1c([N+](=O)[O-])cc([N+](=O)[O-])cc1[N+](=O)[O-]` it was inactive: -0.81%; in that of `CP(=O)(Nc1ccc(Cl)cc1)Oc1ccc(F)cc1` (centres undefined), inactive: 3.84%; in that of `CC(C)(C)c1ccc(OP(C)(=O)O)cc1`, inactive: 2.58%.
As for `COc1ccccc1OP(C)(=O)Nc1ccccc1Br` (centres undefined), the figure is inactive: 0.99%; as for `CN(C)CCOC(=O)C(O)(c1ccccc1)C1CCCC1` (centres undefined), inactive: -0.23%; as for `COc1ccc(OP(C)(=O)Nc2ccccn2)cc1` (centres undefined), inactive: 1.06%.
In the case of `COc1ccccc1OP(C)(=O)Nc1ccc(Br)cc1` (centres undefined), the inhibition is inactive: -2.98%.
As for `CCc1ccc(OP(C)(=O)O)cc1`, the figure is inactive: 1.35%; as for `CP(=O)(Nc1ccccn1)Oc1ccccc1` (centres undefined), inactive: -1.84%; as for `COc1ccccc1OP(C)(=O)Nc1ccc(C)cc1C` (centres undefined), inactive: 1.08%.
In the case of `O=[N+]([O-])c1cc([N+](=O)[O-])c(Nc2ccccn2)c([N+](=O)[O-])c1` it was inactive: -7%.
As for `Cc1c(NP(C)(=O)Oc2ccc(C(C)C)cc2)c(=O)n(-c2ccccc2)n1C` (centres undefined), the figure is inactive: -2.56%; as for `COc1ccc(OP(C)(=O)Nc2ccccc2Br)cc1` (centres undefined), inactive: 5.27%; as for `COc1ccccc1OP(C)(=O)Nc1ccc(C)c(C)c1` (centres undefined), inactive: 1.28%.
Consider `O=C1C(O)=C([N+](=O)[O-])C(=O)C(O)=C1[N+](=O)[O-]`, for which the inhibition was inactive: 6.8%.
Regarding `Cc1cc(C)cc(OP(C)(=O)Nc2cccc(C(F)(F)F)c2)c1` (centres undefined), the inhibition is inactive: -7.04%.
Take `CP(=O)(OCCOc1ccccc1)OCCOc1ccccc1`: the inhibition was inactive: 6.6%.
Turning to `CCCCCCCCCCCCCCCC1C[N+](C)(C)CCOP(C)(=O)O1` (centres undefined), the inhibition was inactive: 1.82%.
In the case of `CP(=O)(Nc1ccc(Cl)cc1Cl)Oc1ccccc1` (centres undefined) it was inactive: 7.79%; in that of `COc1ccc(OP(C)(=O)Nc2ccc(SC(F)(F)F)cc2)cc1` (centres undefined), inactive: 13.8%.
In the case of `CCOC(=O)c1ccc(NP(C)(=O)Oc2ccc(F)cc2)cc1` (centres undefined) it was inactive: 4.05%; in that of `CCN(CC)CCCNc1ccccc1[N+](=O)[O-].O=[N+]([O-])c1cc([N+](=O)[O-])c(O)c([N+](=O)[O-])c1`, inactive: 1.27%; in that of `CCCCCOc1ccc(NP(C)(=O)Oc2ccc(Cl)cc2Cl)cc1` (centres undefined), inactive: 1.92%.
As for `O=[N+]([O-])c1cc([N+](=O)[O-])c(OC2CCCCC2O)c([N+](=O)[O-])c1` (centres undefined), the figure is inactive: 1.35%; as for `CP(=O)(Nc1ccccc1)Oc1ccc(F)cc1` (centres undefined), inactive: 2.35%.
For `CCN(CC)CCCOC(=O)C(O)(c1ccccc1)C1CCCCC1` (centres undefined), the inhibition is inactive: 7.23%.
In the case of `Cc1c([N+](=O)[O-])cc([N+](=O)[O-])c(Br)c1[N+](=O)[O-]`, the inhibition was inactive: -9.09%.
In the case of `CC(C)c1ccc(OP(C)(=O)Nc2ccc(SC(F)(F)F)cc2)cc1` (centres undefined) it was inactive: -8.92%; in that of `CP(=O)(Nc1ccccc1F)Oc1ccccc1` (centres undefined), inactive: 15.8%; in that of `O=[N+]([O-])c1cc([N+](=O)[O-])c(Nc2ccc(Cl)cc2)c([N+](=O)[O-])c1`, inactive: 4.67%.
In the case of `COc1ccc2c(c1O)-c1c(O)c(OC)cc3c1[C@H](C2)[N+](C)(C)CC3.O=[N+]([O-])c1cc([N+](=O)[O-])c([O-])c([N+](=O)[O-])c1[O-]` it was inactive: 1.26%; in that of `O=C(OCCN1CCN(CCOCc2ccccc2)CC1)C(O)(c1ccccc1)c1ccccc1`, inactive: -4.44%.
In the case of `O=C(OC1CN2CCC1CC2)c1ccc([N+](=O)[O-])cc1` (centres undefined) it was inactive: 2.35%; in that of `CCOP(=O)(CC)OCC`, inactive: 9.14%; in that of `CCOP(C)(=S)SCC(=O)NC(C)(CC)C(=O)O` (centres undefined), inactive: -6.71%.
On to `CP(=O)(Nc1ccc(SC(F)(F)F)cc1)Oc1ccc(F)cc1` (centres undefined), for which the inhibition is inactive: -0.65%.
Turning to `O=[N+]([O-])c1cc([N+](=O)[O-])c(C(F)(F)F)c([N+](=O)[O-])c1O`, the inhibition was inactive: -14%.
In the case of `Cc1ccccc1NP(C)(=O)Nc1ccccc1C`, the inhibition was inactive: 0.85%.
In the case of `CP(=O)(Nc1ccc2c(c1)OCCO2)Oc1ccccc1` (centres undefined) it was inactive: -4.48%; in that of `COc1ccc(NP(C)(=O)Oc2ccccc2OC)cc1` (centres undefined), inactive: -0.56%.
`CN(C)CCOC(=O)C(O)(c1ccccc1)C1CCCCC1` (centres undefined): the inhibition was inactive: 2.79%.
As for `COc1ccc(OP(C)(=O)Nc2cccc(Br)c2)cc1` (centres undefined), the figure is inactive: 5.98%; as for `Cc1c(C(c2ccc3c(c2)OCO3)c2c(C)n(C)n(-c3ccccc3)c2=O)c(=O)n(-c2ccccc2)n1C.O=[N+]([O-])c1cc([N+](=O)[O-])c(O)c([N+](=O)[O-])c1`, inactive: -2.04%; as for `Cc1cc(-c2cccc3ccccc23)c(C)cn1.O=[N+]([O-])c1cc([N+](=O)[O-])c(O)c([N+](=O)[O-])c1`, inactive: -7.68%.
As for `O=[N+]([O-])c1cc([N+](=O)[O-])c(NCC2CCS(=O)(=O)C2)c([N+](=O)[O-])c1` (centres undefined), the figure is inactive: 9.88%; as for `O=[N+]([O-])c1ccc(OP2(=O)COCCO2)cc1` (centres undefined), inactive: 1.98%.
